US6830310B2, “Detectable markers in cationic polymeric fixers” (Hewlett-Packard Development Company, L.P., priority 2002, dated 2004)

Assay: Solubility of indicator in polymonoguanadine fixer

O=S(=O)([O-])c1cc(Nc2nc(Nc3ccccc3)nc(N(CCO)CCO)n2)ccc1/C=C/c1ccc(Nc2nc(Nc3ccccc3)nc(N(CCO)CCO)n2)cc1S(=O)(=O)[O-].[Na+].[Na+] [FluorescentBrightner28]
Solubility @ 0.01 % (0.01% in 4 wt % polymonoguanadine fixer): No
Solubility @ 0.1% (0.1% in 4 wt % polymonoguanadine fixer): No
